Test results published in patent publication US12616760B2, “Synthetic cyclic peptide mimetics” (priority 2020, dated 2026).

By UniProt entry, the sequences of proteins in these tests, tags left out. Residues count along the entry.
UniProt P05067, 672-711 limits assumed: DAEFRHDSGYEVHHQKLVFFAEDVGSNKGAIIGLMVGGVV

Target: T1, Aβ40 (Homo sapiens, UniProt P05067)
T1 construct: The extent of Aβ40 aggregation in the presence of increasing concentrations of azacyclopeptides
Assay: Thioflavin T (ThT) fluorescence assay of Aβ40 aggregation
Assay type: biochemical
Experimental: Amyloid generation can be identified and quantified using the thioflavin T (ThT) fluorescence dye assay. […] Agents that bind and inhibit aggregation of Aβ diminish ThT fluorescence relative to untreated Aβ. The extent of Aβ40 aggregation in the presence of increasing concentrations of azacyclopeptides and azasulfurylcyclopeptide 55 was evaluated by the ThT assay. Fluorescence of Aβ40 that was aged for 48 h was used as control, defined as 0% anti-amyloidogenic activity, and compared with fluorescence in the presence of cyclic peptide mimics at increasing concentrations to measure anti-amyloidogenic activity. To facilitate head-to-head comparisons, azacyclopeptides are grouped into four families: a) Compounds 2-7, each having an aza-glycine in a different position; b) azacyclopeptides with aza-residues other than azaGly, compounds 8-20; c) NOTA-cyclic peptide mimic conjugates (40 and 43) and d) azasulfurylcyclopeptide (55). • a) Compounds 2-7. […] At such high concentrations, compound 2 may serve to promote nucleation and seed Aβ aggregation. […] The tolerance of replacement of certain of the original amino acids of compound 1 by azaGly with respect to inhibitory activity on Aβ aggregation is likely due to the effect of the additional hydrogen-bond donor which may favor interactions that compensate for the loss of more hydrophobic side chains.

Q: “c(D-Leu-L-Nle-D-Trp-L-His-Gly^-L-Lys) [Compound 55]” was tested. Which “Inhibition of amyloidogenic activity(%)” value (Table 5, Aβ:peptide 1:1) did it give?
A: 68.5%

Q: And the “Inhibition of amyloidogenic activity(%)” value (Table 5, Aβ:peptide 1:5)?
A: 73%
